Patent US20210015884A1 (priority 2018, published 2021)

System: m^6A levels in 293 cells
Assay: m6A levels in 293 cells transfected with oligonucleotides
Conditions: 100 nM oligo, 72 hrs after transfection

5′ GG/i2FA/CUGG/i2FA/CUGG/i2FA/CUGG/i2FA/CU 3′
inhibition of m^6A levels: 50%
